The numbers were not newly measured in EP0721734A1, “PESTICIDE COMPOSITION” (NIPPON SODA CO., LTD., priority 1993, dated 1995), which cites them from elsewhere.

Consider `CCC1COC(Cn2cncn2)(c2ccc(Cl)cc2Cl)O1` (centres unmarked) [Ethaconasole], for which the water solubility is 80 ppm.
As to `CNC(=O)Oc1cccc2c1OC(C)(C)C2` [Carbofran], the water solubility is reported as 700 ppm.
